Earlier results, collected in paper PMC7935113, “Development and in vivo evaluation of intranasal formulations of parathyroid hormone (1-34)” (Drug Delivery, 2021).

Settings: in vivo; cited from earlier work

In the case of desmopressin, the bioavailability is given as “lower than 3%”.
